From patent US10519133B2, “Vinyl compounds as FGFR and VEGFR inhibitors” (MEDSHINE DISCOVERY INC., priority 2015, dated 2019)

The chains behind the UniProt entries cited, without tags or fusion partners. Residues count along the entry.
UniProt P11362, 22-822 limits assumed: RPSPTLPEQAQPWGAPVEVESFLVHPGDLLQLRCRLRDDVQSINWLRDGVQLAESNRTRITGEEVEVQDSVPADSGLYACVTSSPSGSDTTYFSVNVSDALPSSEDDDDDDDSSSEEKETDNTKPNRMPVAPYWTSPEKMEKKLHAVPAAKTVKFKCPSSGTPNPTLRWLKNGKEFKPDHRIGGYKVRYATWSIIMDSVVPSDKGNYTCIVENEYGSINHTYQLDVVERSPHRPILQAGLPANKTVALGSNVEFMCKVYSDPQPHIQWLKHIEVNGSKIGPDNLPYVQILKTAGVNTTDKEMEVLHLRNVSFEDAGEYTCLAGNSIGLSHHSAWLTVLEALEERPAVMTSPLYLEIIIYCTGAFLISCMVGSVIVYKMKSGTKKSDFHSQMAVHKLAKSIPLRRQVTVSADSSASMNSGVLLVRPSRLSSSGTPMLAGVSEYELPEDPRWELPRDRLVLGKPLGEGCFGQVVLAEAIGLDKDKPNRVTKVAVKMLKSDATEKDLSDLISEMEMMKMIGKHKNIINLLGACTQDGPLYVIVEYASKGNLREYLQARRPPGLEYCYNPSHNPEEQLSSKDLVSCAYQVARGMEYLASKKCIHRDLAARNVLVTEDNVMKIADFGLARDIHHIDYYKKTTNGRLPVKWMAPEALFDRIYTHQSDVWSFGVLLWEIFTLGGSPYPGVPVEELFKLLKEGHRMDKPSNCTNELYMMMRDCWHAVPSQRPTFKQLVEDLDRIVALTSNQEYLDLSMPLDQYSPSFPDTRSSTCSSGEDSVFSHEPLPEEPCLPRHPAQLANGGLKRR

Assays:
FGFR1 = FGFR1 (Homo sapiens, UniProt P11362); assay: Z′-LYTE Detection Kinase Assay, in vitro enzymatic activity; details: read-out: FGFR1 IC50 (Z′-LYTE Detection); 0.6 nM FGFR1, 2 uM Tyr4 peptide, 10 uM ATP, 60 min 23° C.; tested form: 2HCl
Procedure: To measure enzyme activity by Z′-LYTE™ Detection Kinase Assay, and to evaluate the inhibitory effect of the compounds on FGFR1 using IC50 value of the compounds as an indicator. […]
Reaction Buffer: 50 mM Hepes (pH 7.5), 10 mM MgCl2, 1 mM EGTA, 0.01% Brij-35, 1 mM DTT, 2 mM MnCl2 0.6 nM FGFR1, 2 uM Tyr4 peptide and 10 uM ATP in reaction buffer (50 mM Hepes, pH 7.5, 10 mM MgCl2, 0.01% BRIJ-35, 1 mM EGTA, 4 mM MnCl2, 2 mM DTT). a. Diluting the compounds with DMSO to 10 mM, 3-fold dilution, 11 gradients, duplicate wells. b. Diluting the compound by 1:25 into middle plate at Bravo Automatic Liquid Station, then transferring 2.5 ul to the reaction plate to ensure the final DMSO concentration to be 1%. c. Transferring 5 ul of enzyme/substrate buffer into each well d. Using Multidrop Liquid Workstation to sequentially add ATP solution to each well e. Centrifuging at 1000 rpm for 1 minute f. Placing the reaction plate in an incubator at 23° C. to react for 60 min. a. Preparing a 1:128 mixture of Development Regent B and Development Buffer b. Adding 5 ul to each well and centrifuging at 1000 rpm for 1 minute c. Placing the reaction plate in a thermostat (23° C.) after centrifuging for 90 minutes, removing and reading on Envision (Perkin Elmer) Plate Reader
D. Analyzing Data: Analyzing Data Using XLFIT (IDBS) and Calculating IC50 Values for the Compounds.

SNU-16 cell = assay: CellTiter-Glo Luminescent Cell Viability Assay; details: read-out: SNU-16 IC50 (CellTiter-Glo Detection); SNU-16 cells, 3 days; tested form: 2HCl
Procedure: To detect the change of intracellular ATP by CellTiter-Glo® Luminescent Cell Viability Assay, and to evaluate the inhibitory effect of the compounds on in vitro cell SNU-16 using IC50 value of the compounds as an indicator.
Cell line: SNU-16 cell strain d. Diluting SNU-16 with medium, adding the diluted cells to the 384 plate (Greiner. 781090) (50 μL/well, SNU-16 cell 750 cells/well) with multi-channel pipette. Placing the cell plate in a 37° C., 5% CO2 incubator overnight. […]
g. Diluting the compound with DMSO to 10 mM, 3-fold dilution, 11 gradients, duplicate wells. h. Transferring 2.4 ul of the compound to the middle plate added with 47.6 ul of cell culture media at Bravo Automatic Liquid Station. Then transferring 5 ul to the cell culture plate (55 ul) to ensure the final DMSO concentration to be 0.4%. […]
i. Placing the cell culture plate in 5% CO2 incubator at 37° C. to continue cultivating for 3 days. d. Balancing Cell Titer Glo Reagent to room temperature e. Taking 30 ul of Cell Titer Glo Reagent in a 1:2 ratio into each well and gently mixing for 2 minutes f. Placing the cell culture plate in an incubator (23° C.) for 10 minutes, taking out and centrifuging at 1000 rpm for 1 minute g. Reading on Envision (Perkin Elmer) Plate Reader.
H. Analyzing Data: Analyzing the Data Using XLFIT (IDBS) and Calculating IC50 Values for the Compounds.

**Q.** `C[C@@H](Oc1ccc2[nH]nc(/C=C(\F)c3ccc(O[C@@H]4CCOC4)nc3)c2c1)c1c(Cl)cncc1Cl` was tested. Which IC50 (FGFR1) did it give?
**A.** 50 to 1000 nM

**Q.** What about the IC50 (SNU-16 cell) of the same molecule?
**A.** < 10 nM
